A selection: hits, their analogues and other compounds. The true share with any hit is near 3.7%.
Nrf2 inh – inhibitors of Nrf2 signaling; AID 504444; A549 ARE-Fluc reporter, luciferase luminescence, 18-24 h; actives 2.1% (n = 360,000); Potency, µM (doses to about 46 µM), for the others: at the highest dose activity change, negative = inhibition, most hits filed as inhibitors; note: potency is the fitted concentration of half-maximal effect; % is set by controls: 0 for no effect and ±100 for the full control effect; nearly all actives have a fitted effect of over 60% in size
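Reporter: ARE-Fluc in A549. Exposure: 18-24 h, 37 °C, 5% CO2, 5% FBS OPTI-MEM. Readouts: fluorescent cytotoxicity (CellTiter-Fluor), then luminescent Nrf2 signal after BugLite.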
p53 reactivator – re-activators of mutant p53; H1299 p53-A138V BP100-luciferase reporter, luminescence, 24 h; Potency, µM (series often up to 92.2 µM), for the others: top-dose activity change, positive = activation, most hits filed as activators; actives 0.063% (n = 320,000); note: potency is the fitted concentration of half-maximal effect; % of control where 0% means no effect; nearly all actives have a fitted effect of over 45% in size
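H1299 (p53-null), stable ts p53-A138V + BP100-Luc; 1000 cells/well, Opti-MEM/10% FBS; cpd 4 pt, 1:5; 24 h, 37 deg C, 5% CO2; detection reagent 10 min RT; luminescence.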
miR-21 reporter – miR-21 reporter, rising signal. HeLa miR-21 FLuc reporter, luciferase, 48 h. Potency, µM (titrated, usually from 38.3 µM), without a hit: at the top dose reporter change, positive = more light. 340,000 tested, under 10 active. AID 2288; active = well fitted rising curve with a large enough effect; inconclusive = small, poorly fitted or top-dose-only effect; inactive = no such curve, though single readings can be large or run the other way;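 also: % of control where 0% means no effect; miR-21 action dims this reporter so a rising signal means less miR-21 action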
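HeLa miR-21-FLuc reporter line, endogenous miR-21; 2000 cells/well in DMEM/10% FBS; compound titration up to ~40uM final, 48 h, 37 degree Celsius; luciferase detection reagent, 15 min lysis, CCD luminescence.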
Nrf2 activator – Nrf2 pathway activation; Potency, µM (top dose mostly 46.1 µM), for the others: at the top dose activation, hits mostly activators; AREc32 ARE-luciferase reporter (MCF7-derived line), luminescence, 24 h; AID 624171; actives 0.31% (n = 410,000); note: potency is the fitted concentration of half-maximal effect; % of control where 0% means no effect; nearly all actives have a fitted effect of over 65% in size
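Reporter line AREc32 (ARE-Fluc), seeded overnight in OPTI-MEM with 5% FBS; compound pin-transferred, 24 hr at 37 deg C, 5% CO2; luminescent read-out.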
ClpP mod – qHTS Assay for Activators of ClpP; purified B. subtilis ClpP, FRET peptide cleavage, 20 min; Potency, µM (top dose mostly 57.5 µM), inactives show at the highest dose activity change, negative = active; actives 1.9% (n = 340,000); active = well fitted falling curve with a large enough effect; inconclusive = small, poorly fitted or top-dose-only effect; inactive = no such curve, though single readings can be large or run the other way; note: potency is the fitted concentration of half-maximal effect; the source files actives as falling curves though it sought activators and does not explain the sign; nearly all actives have a fitted effect of over 65% in size
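Purified B. subtilis ClpP, 10 microg/mL final in Tris/HCl pH8 with KCl, BSA, glycerol and Tween-20, cleaved an Abz/nitrotyrosine-quenched decapeptide. Fluorescence (ex 320, em 430) was read at 0 and 20 min at room temperature. Delta was normalized to 5.8 microM ADEP and DMSO/no-enzyme controls.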
A549 tox – kills or reduces viability of A549 cells in Nrf2 counter-screen. A549 ARE-Fluc cells, CellTiter-Fluor viability, 18-24 h. Potency, µM (top dose mostly 46 µM), for inactives: at the highest dose activity change, negative = cytotoxicity, usual class: inhibitors. actives 0.16% (n = 390,000); note: potency is the fitted concentration of half-maximal effect; % is set by controls: 0 for no effect and ±100 for the full control effect
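Cytotoxicity counterscreen: CellTiter-Fluor fluorescence was measured in A549 ARE_Fluc cells after 18-24 h of compound exposure in a concentration series. The subsequent BugLite luminescent read reports ARE-luciferase activity.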
The depositor's hits bear a star; ? = inconclusive; nt = no result; [ ] = dose if it differs, or a comment. Unless noted, calls come from the whole dose curve; as a rule, active = well fitted curve in the direction sought with a large enough effect; inconclusive = small, poorly fitted or top-dose-only effect, or another doubt; inactive = no such curve, though single readings can be large; an effect the other way counts as inactive or inconclusive.

# | Structure | Nrf2 inh | p53 reactivator | miR-21 reporter
1 | O=C(Cc1ccc(Cl)cc1)Nc1ccc(NC(=O)c2ccccc2)cc1 | 7.4% | -6.3% | -15.4%
2 | CCc1cc(C(=O)/C=C/c2cc3c(cc2C)OCCO3)c(O)cc1O | nt | nt | nt
3 | CCNc1nc(C)nc2c1cnn2C | -5.6% | nt | nt
4 | COC(=O)C1CSC(C(=O)OC)N1C(=O)Nc1ccc(Cl)cc1 (stereo not given) | nt | -2.0% | -3.1%
5 | COC(=O)C1CSC(C(=O)OC)N1C(=O)Nc1ccc(Cl)c(Cl)c1 (stereo not given) | nt | -7.8% | -7.5%
6 | S=C1NC2=C(CCC/C2=C\c2ccccc2)C(c2ccccc2)N1 (stereo not given) | -20.0% | 0.3% | -11.4%
7 | Fc1ccccc1/C=C1\CCCC2=C1NC(=S)NC2c1ccccc1F (stereo not given) | 8.2µM* | ? | 4.5%
8 | COc1ccc(Cc2c(-c3ccco3)nc3ccc(Br)cn23)c(C)c1 | nt | nt | nt
9 | Cc1cc(Br)cn2c(Cc3ccccc3)c(-c3ccco3)nc12 | nt | nt | nt
10 | Cc1cc(Br)cn2c(Cc3ccsc3)c(-c3cccc(Cl)c3)nc12 | nt | nt | nt
11 | Cc1cc(Br)cn2c(Cc3ccsc3)c(-c3ccco3)nc12 | nt | nt | nt
12 | COc1ccccc1Cc1c(-c2ccco2)nc2c(C)cc(Br)cn12 | nt | nt | nt

# | Nrf2 activator | ClpP mod | A549 tox
1 | 0.3% | ? | -3.8%
2 | nt | -1.2% | nt
3 | -0.5% | 28.2µM* | 0.8%
4 | -0.4% | 31.6µM* | -4.2%
5 | -0.5% | 0.9% | -1.2%
6 | 0.7% | 1.5% | -0.8%
7 | 3.0% | nt | -13.4%
8 | 8.91µM* | -3.1% | nt
9 | 10µM* | -6.2% | nt
10 | 6.6% | 0.6% | nt
11 | 7.08µM* | -1.8% | nt
12 | ? | -5.9% | nt

Entries of single compounds, quoted from the list. Screens in order: Nrf2 inh	p53 reactivator	miR-21 reporter	Nrf2 activator	ClpP mod	A549 tox
Record of CCNc1nc(C)nc2c1cnn2C = -5.6%	nt	nt	-0.5%	28.2µM*	0.8%
Record of COc1ccccc1Cc1c(-c2ccco2)nc2c(C)cc(Br)cn12 = nt	nt	nt	?	-5.9%	nt
Record of Fc1ccccc1/C=C1\CCCC2=C1NC(=S)NC2c1ccccc1F (stereo not given) = 8.2µM*	?	4.5%	3.0%	nt	-13.4%

(further entries)
# | Structure | Nrf2 inh | p53 reactivator | miR-21 reporter
13 | COc1ccc(Cc2c(-c3ccco3)nc3c(C)cc(Br)cn23)c(C)c1 | nt | nt | nt
14 | COc1cc(CCNC2=CC(=O)c3ncccc3C2=O)ccc1O | 13µM* | nt | nt
15 | COc1ccccc1CNS(=O)(=O)c1cc(CN2C(=O)c3cccnc3C2=O)ccc1OC | 1.9% | 0.2% | 0.1%
16 | O=C(Nc1cc(C(F)(F)F)ccc1Cl)C(O)Cc1ccccc1 (stereo not given) | 6.7% | nt | nt
17 | CC(=O)c1ccc(N2CCN(C(=O)Nc3ccc(F)cc3)CC2)cc1 | nt | -1.3% | -7.6%
18 | CC(=O)c1ccc(N2CCN(C(=O)Nc3ccc(C(C)C)cc3)CC2)cc1 | 7.31µM* | -5.4% | ?
19 | CC(CC(=O)Nc1cccc(Cl)c1)c1ccccc1 (stereo not given) | ? | 4.9% | -3.0%
20 | CCCn1c2c(c(O)c(C(=O)Nc3ccc(OC)cc3)c1=O)CCCC2 | ? | 2.9% | -1.6%
21 | CCCn1c2c(c(O)c(C(=O)NC)c1=O)CCCC2 | 4.1% | -18.7% | -3.8%
22 | O=S(=O)(Nc1nc2ccccc2nc1N1CCN(c2ccccc2F)CC1)c1ccc(Cl)cc1 | 23.1µM* | -1.9% | -6.6%
23 | N#Cc1c(-c2ccco2)cc(-c2ccccc2)[nH]c1=O | -54.2% | -4.0% | 2.0%
24 | CCOC(=O)N1CCC(NC(=O)c2ccc3c(c2)N(Cc2ccccc2C)C(=O)c2ccccc2S3=O)CC1 (stereo not given) | 0.0% | nt | -4.8%

# | Nrf2 activator | ClpP mod | A549 tox
13 | 7.4% | -2.9% | nt
14 | -2.8% | 0.8% | 16.4µM*
15 | -0.3% | 2.3% | -3.0%
16 | nt | nt | -6.9%
17 | nt | nt | nt
18 | 2.1% | -9.2% | ?
19 | -0.1% | 14.1µM* | ?
20 | 3.3% | 28.2µM* | -11.6%
21 | -0.1% | -21.4% | 1.8%
22 | -0.6% | -5.9% | ?
23 | 2.51µM* | 3.9% | 0.6%
24 | -0.5% | -0.5% | 0.2%

Continuation:
# | Structure | Nrf2 inh | p53 reactivator | miR-21 reporter
25 | CC1CCC/C(=C\Nc2ccccc2C(=O)O)C1=O (stereo not given) | 1.2% | ? | -0.1%
26 | Cc1ccccc1Nc1cc2ccccc2c(=O)[nH]1 | ? | -29.0% | -11.6%
27 | O=c1[nH]c(Nc2ccccc2Cl)cc2ccccc12 | -2.6% | nt | nt
28 | C=C(C)CNC(=S)N/N=C/c1ccco1 | 8.8% | 9.4% | -9.2%
29 | COc1ccccc1NC(=O)C1=C(C)Nc2nc(SCc3ccccc3Cl)nn2C1c1ccccn1 (stereo not given) | 0.3%[9.27 µM] | nt | 10.6%
30 | CCOc1ccc(/C=C/c2ccc3ccccc3[n+]2C)cc1OCC | nt | nt | nt
31 | CCOC(=O)c1cc(-c2ccccc2)sc1NC(=O)COC(=O)c1ccc(Cl)c(S(N)(=O)=O)c1 | 23.1µM* | 9.0% | 1.0%
32 | CCOC(=O)c1cc(-c2ccccc2)sc1NC(=O)COC(=O)c1cccc(S(N)(=O)=O)c1 | -19.1% | -2.7% | -5.2%
33 | OC(C1=CC(=Cc2ccncc2)c2ccccc21)c1ccncc1 (stereo not given) | 20.6µM* | nt | nt
34 | O=[N+]([O-])c1ccc(/C=C2\C=C(C(O)c3ccc([N+](=O)[O-])cc3)c3ccccc32)cc1 (stereo not given) | nt | nt | nt
35 | c1ccc2c3c([nH]c2c1)-c1[nH]ncc1CC3 | -21.7% | 7.5% | -18.7%
36 | Clc1ccc2[nH]c3c(c2c1)CCc1cn[nH]c1-3 | -16.0% | ? | -6.7%

# | Nrf2 activator | ClpP mod | A549 tox
25 | 6.1% | 22.4µM* | -4.3%
26 | -0.7% | -29.1% | 16.4µM*
27 | 14.0% | 4.8% | -1.8%
28 | 11.2µM* | nt | -1.3%
29 | 0.2% | 2.7% | -0.6%
30 | nt | -2.8% | nt
31 | 0.1% | nt | ?
32 | 0.7% | nt | -3.1%
33 | ? | nt | -20.6%
34 | nt | -2.6% | nt
35 | 7.1% | 12.6µM* | -19.3%
36 | 14.2% | 28.2µM* | -15.8%

The listing continues.
# | Structure | Nrf2 inh | p53 reactivator | miR-21 reporter
37 | N#C/C(=C/c1ccccc1[N+](=O)[O-])c1nc(C2CC2)cs1 | ? | ? | -18.8%
38 | N#C/C(=C/c1ccccc1[N+](=O)[O-])c1nnc2n1CCCCC2 | 9.6% | 14.1% | -6.6%
39 | N#C/C(=C\c1ccccc1[N+](=O)[O-])c1nc(C2CC2)cs1 | ? | ? | -18.5%
40 | N#C/C(=C\C=C\c1ccccc1[N+](=O)[O-])c1nc(-c2ccc3c(c2)OCO3)cs1 | 13.1% | -0.1% | -0.2%
41 | Cc1cc2c(s1)c1cnn(Cc3ccc(-n4cncn4)cc3)c(=O)c1n2C | -24.5% | nt | nt
42 | Cc1ccc(-c2cc(-c3ccccc3)c3c(N)c(S(C)(=O)=O)sc3n2)cc1 | 13µM* | -0.6% | -6.0%
43 | Cc1nn2c(nc(N3CCOCC3)c3ccccc32)c1C=C(C#N)C#N | 11.3% | -15.4% | -4.9%
44 | Cc1nn2c(nc(N3CCCCC3)c3ccccc32)c1C=O | ? | 5.3% | -6.7%
45 | CCC1CCCCN1S(=O)(=O)c1ccc(NC(=O)c2ccncc2)cc1 (stereo not given) | 8.2µM* | -52.2% | 24.4%
46 | CCC1CCCCN1S(=O)(=O)c1ccc(C(=O)Nc2nnc(-c3ccccc3Cl)o2)cc1 (stereo not given) | 5.17µM* | 9.6% | -4.1%

# | Nrf2 activator | ClpP mod | A549 tox
37 | 11.2µM* | -1.7% | -0.6%
38 | 14.5% | -1.5% | -2.0%
39 | 10µM* | -12.8% | -4.4%
40 | 2.7% | -5.3% | 11.7%
41 | nt | nt | -1.4%
42 | 2.3% | ? | 11.3%
43 | -0.2% | -1.5% | 0.7%
44 | 1.7% | 12.6µM* | -3.5%
45 | -0.6% | 0.6% | -15.2%
46 | -0.2% | 0.4% | ?

Bioassay records (PubChem BioAssay)
